This test addresses human CYP11B2 (Homo sapiens (Human), UniProt P19099). In words: V79-Human-CYP11B2 cell assay. The test is classed as cell-based. The note with it: V79 cells expressing human CYP11B2; 125 nM 11-deoxycorticosterone; aldosterone by HTRF. As to the method:
V79 cell lines stably expressing the either the human CYP11B2 or the human CYP11B1 enzyme were generated using a standard transfection protocol. V79 cells were transfected with plasmids pTriEx3-Hygro-hCyp11B2 or pTriEx3-Hygro-hCyp11B1 using Lipofectamine2000 reagent. V79 cells that stably express the human CYP11B2 or human CYP11B1 enzyme were selected for and maintained in DMEM supplemented with 10% FBS and 400 μg/mL hygromycin for 2 weeks. Single cell clones were generated by infinite dilution in DMEM supplemented with 10% FBS and 400 μg/mL hygromycin until single colonies were obtained. Clones V79-hCYP11B2-CLE9 and V79-hCYP11B1-CL8C7, were determined to produce the most aldosterone and cortisol, respectively, and were selected for inhibitor screening. […] The amount of product in the supernatant (aldosterone for CYP11B2 assay and cortisol for the CYP11B1 assay) was measured using HTRF-based assay kit (Aldosterone HTRF-CisBio#64ALDPEB, Cortisol HTRF-CisBio #63IDC002-CORT). IC50s for the inhibitor were determined by plotting the amount of product formed against the concentration of inhibitor using sigmoidal dose-response curve (variable slope) fit in GraphPad.
(TR-FRET usually uses a lanthanide donor and a delayed reading to cut background.)

Sequences of proteins named here, by UniProt entry; tags and fusion partners are left off. Residues count along the entry.
UniProt P19099, 25-503: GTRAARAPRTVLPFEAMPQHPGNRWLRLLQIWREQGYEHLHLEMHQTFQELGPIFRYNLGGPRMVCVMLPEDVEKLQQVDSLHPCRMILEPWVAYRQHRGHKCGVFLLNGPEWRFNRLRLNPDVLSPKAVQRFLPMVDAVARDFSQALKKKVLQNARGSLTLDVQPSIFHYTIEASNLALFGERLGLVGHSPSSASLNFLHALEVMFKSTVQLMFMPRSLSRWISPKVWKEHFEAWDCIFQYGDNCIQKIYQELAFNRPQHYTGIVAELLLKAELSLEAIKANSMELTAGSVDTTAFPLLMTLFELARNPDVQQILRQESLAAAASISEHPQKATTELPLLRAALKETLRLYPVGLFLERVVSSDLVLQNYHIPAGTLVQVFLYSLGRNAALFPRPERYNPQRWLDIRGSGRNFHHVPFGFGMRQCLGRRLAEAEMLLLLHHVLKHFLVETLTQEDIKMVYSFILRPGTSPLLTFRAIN

Each structure is given as a SMILES string.

`CC(=O)N1CCc2cc(-c3cncc(F)c3)c(F)cc21` [Example 48, 1-(6-fluoro-5-(5-fluoropyridin-3-yl)indolin-1-yl)ethanone]: the IC50 (usually the point on the concentration scale where inhibition reaches its midpoint) turned out to be 690 nM.

(Values after patent US9745282B2, “Indoline compounds as aldosterone synthase inhibitors” (Merck Sharp & Dohme Corp., priority 2012, dated 2017).)
